Experimental findings from PubChem BioAssay AID1496 (Sanford-Burnham Center for Chemical Genomics, 2009) are described below.

By UniProt entry, the sequences of proteins in these tests, tags left out.
UniProt Q01196, whole entry, looked up: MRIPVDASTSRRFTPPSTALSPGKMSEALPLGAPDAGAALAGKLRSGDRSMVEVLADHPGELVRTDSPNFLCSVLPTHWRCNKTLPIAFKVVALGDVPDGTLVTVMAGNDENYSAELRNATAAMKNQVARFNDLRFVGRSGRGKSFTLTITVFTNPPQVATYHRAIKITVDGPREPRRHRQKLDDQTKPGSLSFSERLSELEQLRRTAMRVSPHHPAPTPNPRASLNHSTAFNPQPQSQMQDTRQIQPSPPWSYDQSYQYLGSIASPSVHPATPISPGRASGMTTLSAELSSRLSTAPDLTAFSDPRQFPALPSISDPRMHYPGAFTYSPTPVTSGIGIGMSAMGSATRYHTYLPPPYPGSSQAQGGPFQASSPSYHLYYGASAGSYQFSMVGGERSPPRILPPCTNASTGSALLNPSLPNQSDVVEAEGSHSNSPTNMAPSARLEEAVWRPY
UniProt Q13951, whole entry, looked up: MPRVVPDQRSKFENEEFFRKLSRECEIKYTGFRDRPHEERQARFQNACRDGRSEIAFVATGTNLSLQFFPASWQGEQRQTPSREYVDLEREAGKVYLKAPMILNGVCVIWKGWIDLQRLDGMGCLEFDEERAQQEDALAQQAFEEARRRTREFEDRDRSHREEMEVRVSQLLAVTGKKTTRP

Values joined by “and” are separate entries in the source; they are usually repeats but may differ in a detail not shown here. Equal entries are not always repeated. The entries are a selection whose mix differs from that of the whole data set. Active and inactive are the calls of the source.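 The calls were made as follows: active = inhibition over about 50% at 20 µM in the single-dose screen (limit read from the data); inactive = the rest.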

For orientation: inhibition means the drop in the measured response relative to a control, in per cent.

For the assay, the target named is Runt-related transcription factor 1 (Homo sapiens) + Core-binding factor subunit beta (Homo sapiens) (UniProt Q01196+Q13951). Put plainly: inhibitors of RUNX1 Runt–CBFb binding, primary screen, biochemical, FRET, Cerulean-Runt, Venus-CBFb, uHTS (AID 1496).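 Also: 0% = DMSO wells and 100% = excess unlabeled CBFb competitor control.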 The note with it: Cerulean-Runt/Venus-CBFb FRET ratio 530/480, 1 h; at 20 µM; hits give high values. In short, it runs like this:
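Assay system: Cerulean-Runt domain / Medium: Tris 50 mM pH 7.5, KCl, K2SO4, 0.01% BSA / Timing: protein complex preformed 1 h, compound exposure 1 h, room temperature, dark / Measured by: FRET, excitation 422 nm, emission at 530 and 480 nm / Evaluation: loss of energy transfer signal / Control set: 5 µM unlabeled CBFb as full-inhibition high control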
On to `Cc1cc(SC(NC(=O)c2ccc(F)cc2)C(Cl)(Cl)Cl)ncn1` (stereo not given), for which the inhibition was active: 50.6%.

Take `CCOP(=O)(Nc1ccccc1)OCC`: the inhibition is inactive: -2% and inactive: 1.7%.

For `Cc1ccc(NP(=O)(Oc2ccccc2F)Oc2ccccc2F)nc1`, the inhibition is inactive: 1.4%.

Regarding `O=P(Nc1nc2ccc(Cl)cc2s1)(c1ccccc1)c1ccccc1`, the inhibition is inactive: -1.2%.

As for `CC(=O)Nc1ccc([As](=O)(O)O)cc1`, the inhibition was inactive: 0.2%.

With `O=C(O)c1ccccc1[As](=O)(O)O`, the inhibition was inactive: 0.4%.

Turning to `Nc1cccc2ccc([As](=O)(O)O)cc12`, the inhibition was inactive: 35.3%.

For `CCN(N=Nc1nonc1N)c1nonc1N`, the inhibition was inactive: 2.7%.

Take `CN1CCCC(OC(=O)C(c2ccccc2)c2ccccc2)C1` (stereo not given): the inhibition is inactive: 1.3%.

Regarding `Clc1ccc(Cl)c(NC2=NCC(CBr)S2)c1` (stereo not given), the inhibition was inactive: 3.2%.

Turning to `COc1ccccc1OP(=O)(Nc1ccc(C)cn1)Oc1ccccc1OC`, the inhibition is inactive: -1.4%.

With `Cc1ccc(OP(=O)(Nc2nccs2)Oc2ccc(C)cc2)cc1`, the inhibition was inactive: -1%.

In the case of `Cc1ccc(N/C(=N/P(=O)(N2CCOCC2)N2CCOCC2)N2CCOCC2)cc1`, the inhibition is inactive: -0.2%.

Regarding `NC(=O)c1cc([N+](=O)[O-])cc([N+](=O)[O-])c1N`, the inhibition was inactive: -1.1%.

Turning to `Oc1ccccc1CNc1ccccn1`, the inhibition was inactive: -1.9%.

As to `O=C(NC(Sc1ccncn1)C(Cl)(Cl)Cl)c1ccccc1` (stereo not given), the inhibition is inactive: 13.8%.

On to `Cc1c2non([O-])c-2c(C)[n+](=O)[n+]1[O-]`, for which the inhibition was inactive: 12.9%.

As to `Nc1cc(N)c2nonc2c1[N+](=O)[O-]`, the inhibition was inactive: -0.1%.

Consider `CC(C)CC(=O)NC(Sc1ccc(Cl)cc1)C(Cl)(Cl)Cl` (stereo not given), for which the inhibition is inactive: -0.1%.

With `Cc1ccc(NP(=O)(Oc2ccccc2)Oc2ccccc2)nc1`, the inhibition is inactive: 0.8%.

In the case of `CCc1nc2c(n1)c1c(non1O)c1c2no[n+]1[O-]`, the inhibition was inactive: -0.9%.

As for `CC(=O)N1C2C3N(C(C)=O)C1C1N(C(C)=O)C(C(N1C(C)=O)N3C(C)=O)N2C(C)=O`, the inhibition was inactive: 0.5%.

As to `O=[N+]([O-])c1cccc2n[nH]nc12`, the inhibition is inactive: 3.6%.

For `COc1ccc(C2=NCC(CBr)S2)cc1` (stereo not given), the inhibition is inactive: 7.3%.

`CC1CCN(C(=O)Oc2c(Cl)cc(Cl)c3cccnc23)CC1`: the inhibition was inactive: -3.3%.

Regarding `CC(C)=N/N=C(\N)N[N+](=O)[O-]`, the inhibition was inactive: 0.9%.

Take `CN(C)C(=O)OCCc1n(C)cc[n+]1C`: the inhibition is inactive: -0.5%.

Turning to `CCN(/C(=N/P(=O)(N1CCOCC1)N1CCOCC1)N1CCOCC1)c1ccc(OC)cc1`, the inhibition was inactive: 2.9%.

`Nc1ccc([As](=O)(O)c2ccc(N)cc2)cc1`: the inhibition is inactive: 1.4%.

With `C[N+]1=C2C=CC=CC=C2SC12C([N+](=O)[O-])=CC([N+](=O)[O-])=C[C-]2[N+](=O)[O-]` (stereo not given), the inhibition is inactive: 31.3%.
